Assay results published in patent US20240066045A1, “SEMICARBAZONE-BASED SAPONIN CONJUGATE” (priority 2020, published 2024).

Tests used:
Format in all cases: cell-based
HSP27 mRNA in A431 cells = test: HSP27 gene silencing (HSP27 mRNA expression, qPCR); conditions: A431 (EGFR++/HER2+/−); conjugate titrated + 50 pM Trastuzumab-HSP27BNA; read-out: IC50 targeted HSP27 gene silencing
Source text: RNA from cells was isolated and analysed according to standard protocols (Biorad).

[1] = tested on: SK-BR-3 cells (HER2++/CD71+); test: HER2/CD71 targeted cell killing: antibody-saponin conjugate titrated on 10 pM CD71mab-saporin
[2] = tested on: HeLa cells (EGFR+/−/CD71+); test: EGFR/CD71 targeted cell killing: antibody-saponin conjugate titrated on 10 pM CD71mab-saporin
Procedure: Cell viability was determined by an MTS-assay, performed according to the manufacturer's instruction (CellTiter 96® AQueous One Solution Cell Proliferation Assay, Promega). Briefly, the MTS solution was diluted 20× in DMEM without phenol red (PAN-Biotech GmbH) supplemented with 10% FBS (PAN-Biotech GmbH). The cells were washed once with 200 μL PBS per well, after which 100 μL diluted MTS solution was added per well. The plate was incubated for approximately 20-30 minutes at 37° C. Subsequently, the optical density at 492 nm was measured on a Thermo Scientific Multiskan FC plate reader (Thermo Scientific).
When EGFR expression is absent (in A2058 cells), effective SO1861 concentrations are not reached (i.e., below threshold) to induce endosomal escape and cytoplasmic delivery of the protein toxin.

Substance | IC50 (HSP27 mRNA in A431 cells) | activity improved compared to Trastuzumab-(EMCH-SO1861)^4 [1] | IC50 [2]
Cetuximab-(EMCH-SO1861)^4: SO1861-EMCH conjugated to Cetuximab at DAR 4 [reference compound] | 0.5 nM | – | –
Trastuzumab-(SC-SO1861)^4: SO1861-SC-Mal conjugated via cysteine residues to Trastuzumab, DAR 4 | – | 5 fold | –
Cetuximab-(SC-SO1861)^4: SO1861-SC-Mal conjugated via cysteine residues to Cetuximab, DAR 4 | 0.5 nM | – | 500 nM
